Measurements: patent publication US20080299132A1, “Synergistic compositions for treating HIV-1” (Roche Palo Alto LLC, priority 2006, published 2008)

Amino acid sequences for entries named in this document (tags omitted).
UniProt P51681, whole entry: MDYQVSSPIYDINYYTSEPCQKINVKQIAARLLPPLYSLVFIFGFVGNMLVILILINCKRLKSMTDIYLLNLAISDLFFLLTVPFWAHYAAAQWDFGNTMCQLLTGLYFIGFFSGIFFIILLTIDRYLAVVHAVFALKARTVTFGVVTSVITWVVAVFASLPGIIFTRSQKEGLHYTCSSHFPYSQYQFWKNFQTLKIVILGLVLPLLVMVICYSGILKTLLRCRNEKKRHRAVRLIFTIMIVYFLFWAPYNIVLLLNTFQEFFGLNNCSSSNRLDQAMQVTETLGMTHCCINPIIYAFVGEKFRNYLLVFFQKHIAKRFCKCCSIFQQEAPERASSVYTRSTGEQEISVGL

Assays:
CCR5 [1] = molecular target: T1, CCR5 (Homo sapiens, UniProt P51681); test: CCR5-mediated cell-cell fusion (CCF) assay, single agents; type: cell-based; set-up: host or cells: CEM-NKr-CCR5-Luc
Procedure: CCF assay was performed as described before (C. Ji, J. Zhang, N. Cammack and S. Sankuratri, J. Biomol. Screen. 2006 11(6):652-663). […] At the end of co-culture, 15 μL of Steady-Glo luciferase substrate was added into each well, and the cultures were sealed and gently shaken for 45 min. The luciferase activity were measured for 10 sec per well as luminescence by using 16-channel TopCount NXT (PerkinElmer, Shelton, Conn.) with 10 min dark adaptation and the readout is count per second (CPS). […] Five μL each of the two diluted compound or mAb to be tested for drug-drug interactions were added to the Hela-R5 cells right before the addition of target cells.

CCR5 [2] = molecular target: T1, CCR5; test: Drug interaction (synergy) analysis of two-drug combinations in the CCF assay (Greco and Prichard models); type: cell-based; set-up: host or cells: CEM-NKr-CCR5-Luc
Description: For the in vitro cell-cell fusion studies, the possibility of either enhanced (synergy) or reduced (antagonism) efficacy of CCR5 antibodies in combination with CCR5 antagonists was considered. Models and approaches for the assessment of in vitro drug interactions have been described and reviewed (M. C. Berenbaum J. Theor. Biol. 1985 114:413-431, Pharmacol. Rev. 1989 41:93-141; W. R. Greco et al. Pharmacol. Rev. 1995 47:331-385; M. N Pritchard and C. Shipman Jr. Antivir. Res. 1990 14:181-205; J. Suhnel Antivir. Res. 1990 13:23-39.) Synergy and antagonism are defined as departure from the hypothesis that there is no interaction between two drugs. The Lowe additivity (LA) and Bliss independence (BI) theories are the two primary candidates for reference models which follow two different additive drug interaction theories.
Drug interaction models based on the LA theory assume that a drug cannot interact with itself. […] A seven-parameter non-linear model (i) was fit to all experimental data including percent inhibitions calculated from replicates for all concentrations of the two drugs alone and in combination from two 384-well plates. […]
Loewe additivity or no interaction is indicated when the 95% confidence interval of a includes 0. Furthermore, the predicted additivity of the drugs combined was calculated by using all estimated parameters of the Greco model, except a that is fixed at 0. […]

- percent inhibition of cell-cell fusion (CCR5 [1]; added alone at 0.27 nM): 13%
- concentration required to reach 95% inhibition (CCR5 [1]; drug alone): 22.2 nM
- concentration required to achieve 95% inhibition in combination (CCR5 [2]; 0.8 nM ROAb14 plus 2.47 nM MVC added together): 2.47 nM
- reduction in dose to reach 95% inhibition, combination versus alone (CCR5 [2]; ROAb14 plus MVC): 9.8 fold
SMILES: Cc1nnc(C(C)C)n1[C@H]1C[C@H]2CC[C@@H](C1)N2CC[C@H](NC(=O)C1CCC(F)(F)CC1)c1ccccc1 [MVC]
